{"sequences": {"note": "The chains behind the UniProt entries cited, without tags or fusion partners. Where a name states a change or a piece, a line headed by the entry shows the natural chain unless it says otherwise.", "UniProt Q9QYN8": "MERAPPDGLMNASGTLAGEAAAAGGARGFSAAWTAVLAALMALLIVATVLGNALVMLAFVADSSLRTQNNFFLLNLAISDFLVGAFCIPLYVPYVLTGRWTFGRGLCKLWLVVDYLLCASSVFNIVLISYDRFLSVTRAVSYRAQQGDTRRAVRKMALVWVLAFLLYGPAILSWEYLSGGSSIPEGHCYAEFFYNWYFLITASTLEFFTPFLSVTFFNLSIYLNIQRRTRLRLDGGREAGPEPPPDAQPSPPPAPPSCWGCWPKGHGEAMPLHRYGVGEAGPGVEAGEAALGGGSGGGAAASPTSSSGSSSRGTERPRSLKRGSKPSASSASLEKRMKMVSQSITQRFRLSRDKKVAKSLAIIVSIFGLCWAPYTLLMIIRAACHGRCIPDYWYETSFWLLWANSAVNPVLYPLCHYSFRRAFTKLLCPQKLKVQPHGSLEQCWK"}, "source": "ChEMBL document CHEMBL1833909", "about": "“Synthesis and structure-activity relationships of 4,5-fused pyridazinones as histamine H₃ receptor antagonists” (Bioorg Med Chem Lett, 2011)", "target": "Histamine H3 receptor (Rattus norvegicus, UniProt Q9QYN8)", "experiment": "Displacement of [3H]-NAMH from rat histamine H3 receptor expressed in CHO cells", "format": "cell-based"}
{"compound": "C[C@@H]1CCCN1CCc1cc2cc(-c3ccc(C#N)cc3)ccc2o1", "values": [{"measurement": "Ki", "result": 3, "unit": "nM"}]}
